Assay results from ChEMBL document CHEMBL1155536, “Synthesis and evaluation of azabicyclo[3.2.1]octane derivatives as potent mixed vasopressin antagonists” (Bioorg Med Chem Lett, 2010).

Columns and labels:
[1] = organism: Homo sapiens; test: Selectivity ratio of IC50 for human Vasopressin V1a receptor to IC50 for human Vasopressin V2 receptor
[2] = Half life in human liver microsome at 1 uM; settings: liver microsomes
[3] = organism: Homo sapiens; test: Selectivity ratio of Ki for human Vasopressin V1a receptor to Ki for human Vasopressin V2 receptor

COc1cc(C(=O)N2C[C@]3(C)C[C@H]2CC(C)(C)C3)ccc1-c1csc2ccccc12
Ratio IC50 [1]: 0.05 | half-life at 1 µM [2]: < 1 min | Ratio Ki [3]: 0.05
